ChEMBL document CHEMBL1128959, “Quinoline-substituted dihydroindoles as cysLT1 (LTD4 receptor) antagonists” (Bioorg Med Chem Lett, 1996)

Experiments:
[1] = molecular target: T1, Cysteinyl leukotriene receptor 1 (Cavia porcellus) (UniProt Q2NNR5); assay: Compound was tested for its inhibitory activity against specific binding of [3H]LTD4 to guinea pig ileum.; assay type: tissue-based
T1 sequence (whole entry): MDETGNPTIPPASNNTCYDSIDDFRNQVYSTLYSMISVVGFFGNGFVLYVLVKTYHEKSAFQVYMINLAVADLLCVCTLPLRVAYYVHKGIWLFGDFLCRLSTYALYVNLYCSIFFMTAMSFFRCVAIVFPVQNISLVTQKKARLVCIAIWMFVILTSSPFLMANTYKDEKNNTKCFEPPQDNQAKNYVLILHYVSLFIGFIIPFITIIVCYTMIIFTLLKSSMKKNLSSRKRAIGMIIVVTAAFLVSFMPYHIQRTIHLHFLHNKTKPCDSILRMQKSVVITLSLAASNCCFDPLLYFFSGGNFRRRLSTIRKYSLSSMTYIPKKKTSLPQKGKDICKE

[2] = molecular target: T1, Cysteinyl leukotriene receptor 1 (Cavia porcellus); assay: Compound was tested for its inhibitory activity against specific binding of [3H]LTD4 to guinea pig trachea.; assay type: tissue-based

pKB [1]: 8
pKB [2]: 7.8
Structure (SMILES): c1cc(CN2CCc3cccc(CCc4nnn[nH]4)c32)cc(OCc2ccc3ccccc3n2)c1
